{"sequences": {"note": "Chains of the proteins cited; added tags and fusions are not shown.", "UniProt P51681, whole entry": "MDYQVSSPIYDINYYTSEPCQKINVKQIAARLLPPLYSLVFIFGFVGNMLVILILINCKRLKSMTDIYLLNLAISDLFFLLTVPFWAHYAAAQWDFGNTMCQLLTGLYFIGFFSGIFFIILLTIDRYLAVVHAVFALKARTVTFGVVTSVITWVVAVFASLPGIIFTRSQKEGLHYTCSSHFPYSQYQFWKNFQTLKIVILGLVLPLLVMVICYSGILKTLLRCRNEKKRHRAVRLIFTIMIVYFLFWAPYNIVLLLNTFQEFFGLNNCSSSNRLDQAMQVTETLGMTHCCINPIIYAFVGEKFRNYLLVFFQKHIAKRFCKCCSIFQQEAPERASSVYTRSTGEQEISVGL"}, "source": "paper PMC6245477", "about": "“Discovery of a Novel CCR5 Antagonist Lead Compound Through Fragment Assembly” (Molecules, 2008)", "molecular_target": "T1, CCR5 (Homo sapiens, UniProt P51681)", "T1 construct": "expressed in transfected cells", "assay": "Calcium mobilization assay (RANTES-induced, Fluo-4 AM)", "format": "cell-based", "conditions": "CHO cells stably expressing CCR5 and Gα16; RANTES 30 nM; read-out: IC50 (antagonistic activity against CCR5)", "method": "For the primary assay, the percent inhibitory rates of the compounds 1, 2 and 2a-l at 1 μM were measured. Except compounds 2a and 2c, the other twelve compounds were remarkably antagonist of CCR5 activity. Therefore, we determined their IC50 values (Table 1).\nCHO cells stably expressing CCR5 and Gα16 were loaded with 2 μmol/L Fluo-4 AM in Hanks balanced salt solution (HBSS, containing KCl 5.4 mM, Na2HPO4 0.3 mM, KH2PO4 0.4 mM, NaHCO3 4.2 mM, CaCl2 1.3 mM, MgCl2 0.5 mM, Mg2SO4 0.6 mM, NaCl 137 mM, BSA 5 g/L, Glucose 5.6 mM, Sulfinpyrazone 250 μM, pH 7.4) at 37 °C for 45 minutes. After the cells being rinsed with the reaction buffer, 50 μL HBSS containing known antagonists (positive control), compounds of interest or DMSO (negative control, final concentration 1%) were added. After incubation at room temperature for 10 minutes, 25 μL RANTES (final concentration 30 nM) was dispensed into the well using a FlexStation II micro-plate reader (Molecular Devices, Sunnyvale, CA, USA) and intracellular calcium change was recorded with an excitation wavelength of 485 nm and emission wavelength of 525 nm. The half maximal inhibitory concentrations (IC50s) of compounds were determined with GraphPad Prism software by constructing their dose-response curves."}
{"substance": "maraviroc [reference compound]", "values": [{"measurement": "IC50", "result": 2.61, "unit": "nM"}]}
